Laboratory results: ChEMBL document CHEMBL1146303, “Spirodiketopiperazine-based CCR5 antagonists: Lead optimization from biologically active metabolite” (Bioorg Med Chem Lett, 2007)

Protein sequences, listed by entry. Tags and fused reporters are not part of them.
UniProt P51681, whole entry: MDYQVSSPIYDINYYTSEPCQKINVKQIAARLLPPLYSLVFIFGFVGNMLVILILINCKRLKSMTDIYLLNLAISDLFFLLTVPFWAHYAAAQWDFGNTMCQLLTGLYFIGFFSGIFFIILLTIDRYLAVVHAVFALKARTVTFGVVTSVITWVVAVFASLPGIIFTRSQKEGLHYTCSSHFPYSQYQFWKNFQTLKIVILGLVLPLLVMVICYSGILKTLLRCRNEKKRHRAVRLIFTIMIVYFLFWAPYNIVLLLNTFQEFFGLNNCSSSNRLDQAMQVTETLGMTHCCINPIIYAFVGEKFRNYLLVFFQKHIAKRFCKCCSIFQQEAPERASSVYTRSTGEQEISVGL

Legend:
[1] = molecular target: T1, C-C chemokine receptor type 5 (Homo sapiens, UniProt P51681); test: Antagonist activity at human CCR5 expressed in CHO cells assessed as inhibition of MIP-1-alpha-stimulated calcium mobilization; assay type: functional, cell-based
In short: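 Cells expressing human CCR5 (hCCR5/CHO) were stimulated with MIP-1α, and the rise in intracellular calcium was measured. Potency is reported as an IC50 for inhibition of the calcium response.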

[2] = molecular target: T1, C-C chemokine receptor type 5; test: Displacement of [125I]MIP1-alpha from human CCR5 expressed in CHO cells; assay type: cell-based
In short: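 CCR5 binding affinity was measured as inhibition of 125I-MIP-1α binding to hCCR5/CHO cells and reported as an IC50.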

Question: Which results are given for `CCCCN1C(=O)[C@@H]([C@H](O)C2CCCCC2)NC(=O)C12CCN(Cc1ccc(Oc3ccccc3)cc1)CC2.Cl`?
Answer: IC50 [1]: 53 nM; IC50 [2]: 1.1 nM
